Laboratory results as given in ChEMBL document CHEMBL5715947 (Blood Cancer J, 2011).

Amino acid sequences for entries named in this document (tags omitted).
UniProt P36888, whole entry: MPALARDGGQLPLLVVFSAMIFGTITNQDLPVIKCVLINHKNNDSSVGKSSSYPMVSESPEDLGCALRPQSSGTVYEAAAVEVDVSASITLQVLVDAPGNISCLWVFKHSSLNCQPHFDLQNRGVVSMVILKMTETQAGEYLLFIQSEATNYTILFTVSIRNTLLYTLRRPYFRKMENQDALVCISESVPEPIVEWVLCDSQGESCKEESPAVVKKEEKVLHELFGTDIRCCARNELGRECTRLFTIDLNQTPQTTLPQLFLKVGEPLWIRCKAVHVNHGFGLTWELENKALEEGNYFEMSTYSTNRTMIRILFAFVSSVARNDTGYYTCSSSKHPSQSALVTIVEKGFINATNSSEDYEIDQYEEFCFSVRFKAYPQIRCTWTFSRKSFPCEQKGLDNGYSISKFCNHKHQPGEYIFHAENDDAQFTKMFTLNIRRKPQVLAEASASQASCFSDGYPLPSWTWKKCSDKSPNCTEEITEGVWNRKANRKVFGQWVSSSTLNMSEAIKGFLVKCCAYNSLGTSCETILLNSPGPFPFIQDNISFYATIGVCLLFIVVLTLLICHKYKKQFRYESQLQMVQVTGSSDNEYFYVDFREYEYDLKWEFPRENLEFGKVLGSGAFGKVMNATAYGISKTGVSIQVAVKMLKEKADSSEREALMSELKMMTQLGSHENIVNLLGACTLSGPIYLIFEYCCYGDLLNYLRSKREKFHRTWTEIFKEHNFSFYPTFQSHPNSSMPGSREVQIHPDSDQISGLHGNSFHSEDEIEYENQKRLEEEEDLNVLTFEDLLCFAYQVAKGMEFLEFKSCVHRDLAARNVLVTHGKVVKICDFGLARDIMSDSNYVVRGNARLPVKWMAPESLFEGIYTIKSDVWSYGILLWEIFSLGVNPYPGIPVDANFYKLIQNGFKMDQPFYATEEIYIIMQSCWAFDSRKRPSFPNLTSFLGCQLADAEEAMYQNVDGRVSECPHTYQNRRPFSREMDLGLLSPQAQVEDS

Assays:
[1] = target: T1, Receptor-type tyrosine-protein kinase FLT3 (Homo sapiens, UniProt P36888)
[2] = target: T2, Receptor-type tyrosine-protein kinase FLT3 (Homo sapiens, UniProt P36888, ITD); experiment: Inhibition of FLT3-ITD mutant in human MV4-11 cells assessed as reduction in phosphorylated AKT protein expression incubated for 3 hrs by Western blot analysis; format: cell-based
[3] = target: T2, Receptor-type tyrosine-protein kinase FLT3; experiment: Inhibition of FLT3-ITD mutant in human MOLM-13 cells assessed as reduction in phosphorylated STAT5 protein expression incubated for 3 hrs in presence of FLT3 ligand by Western blot analysis; format: cell-based
[4] = target: T1, Receptor-type tyrosine-protein kinase FLT3; experiment: Inhibition of FLT3 in human RS4-11 cells assessed as reduction in phosphorylated FLT3 protein expression incubated for 3 hrs in presence of FLT3 ligand by Western blot analysis; format: cell-based
[5] = target: T1, Receptor-type tyrosine-protein kinase FLT3; experiment: Inhibition of FLT3 in human RS4-11 cells assessed as reduction in phosphorylated STAT5 protein expression incubated for 3 hrs in presence of FLT3 ligand by Western blot analysis; format: cell-based
[6] = target: T2, Receptor-type tyrosine-protein kinase FLT3; experiment: Inhibition of FLT3-ITD mutant in human MOLM-13 cells assessed as reduction in phosphorylated FLT3 protein expression incubated for 3 hrs in presence of FLT3 ligand by Western blot analysis; format: cell-based
[7] = target: T2, Receptor-type tyrosine-protein kinase FLT3; experiment: Inhibition of FLT3-ITD mutant in human MV4-11 cells assessed as reduction in phosphorylated ERK1/2 protein expression incubated for 3 hrs by Western blot analysis; format: cell-based
[8] = target: T1, Receptor-type tyrosine-protein kinase FLT3; remark: listed apart in the source
[9] = Antiproliferative activity against relapsed human derived M2 Fab type Acute myeloid leukemic cells assessed as reduction in cell viability incubated for 48 hr by CellTiter-Glo assay; format: functional, cell-based; details: Leukemia cell
[10] = target: T1, Receptor-type tyrosine-protein kinase FLT3; remark: listed apart in the source
[11] = target: T2, Receptor-type tyrosine-protein kinase FLT3
[12] = target: T2, Receptor-type tyrosine-protein kinase FLT3; experiment: Inhibition of FLT3-ITD mutant in human MV4-11 cells assessed as reduction in phosphorylated STAT5 protein expression incubated for 3 hrs by Western blot analysis; format: cell-based

Question: For C1=N/C2=N/c3ccc(OCCN4CCCC4)c(c3)COC/C=C/COCc3cccc(c3)C(=C1)N2 [PACRITINIB], which IC50 [1] is on record?
Answer: < 500 nM

Question: And the IC50 [2]?
Answer: 29 nM

Question: What about the IC50 [3] of the same molecule?
Answer: 20 nM

Question: And the IC50 [4]?
Answer: 600 nM

Question: What about the IC50 [5] of the same molecule?
Answer: 8 nM

Question: What about the IC50 [6] of the same molecule?
Answer: 180 nM

Question: What about the IC50 [7] of the same molecule?
Answer: 33 nM

Question: What about the IC50 [8] of the same molecule?
Answer: < 500 nM

Question: And the IC50 [9]?
Answer: 180 nM

Question: And the IC50 [10]?
Answer: < 500 nM

Question: What about the IC50 [11] of the same molecule?
Answer: 80 nM

Question: What about the IC50 [12] of the same molecule?
Answer: 40 nM
